The results in this text go back to patent US20030175817A1 (published 2003).

By UniProt entry, the sequences of proteins in these tests, tags left out. Where a name states a change or a piece, a line headed by the entry shows the natural chain unless it says otherwise.
UniProt P10275: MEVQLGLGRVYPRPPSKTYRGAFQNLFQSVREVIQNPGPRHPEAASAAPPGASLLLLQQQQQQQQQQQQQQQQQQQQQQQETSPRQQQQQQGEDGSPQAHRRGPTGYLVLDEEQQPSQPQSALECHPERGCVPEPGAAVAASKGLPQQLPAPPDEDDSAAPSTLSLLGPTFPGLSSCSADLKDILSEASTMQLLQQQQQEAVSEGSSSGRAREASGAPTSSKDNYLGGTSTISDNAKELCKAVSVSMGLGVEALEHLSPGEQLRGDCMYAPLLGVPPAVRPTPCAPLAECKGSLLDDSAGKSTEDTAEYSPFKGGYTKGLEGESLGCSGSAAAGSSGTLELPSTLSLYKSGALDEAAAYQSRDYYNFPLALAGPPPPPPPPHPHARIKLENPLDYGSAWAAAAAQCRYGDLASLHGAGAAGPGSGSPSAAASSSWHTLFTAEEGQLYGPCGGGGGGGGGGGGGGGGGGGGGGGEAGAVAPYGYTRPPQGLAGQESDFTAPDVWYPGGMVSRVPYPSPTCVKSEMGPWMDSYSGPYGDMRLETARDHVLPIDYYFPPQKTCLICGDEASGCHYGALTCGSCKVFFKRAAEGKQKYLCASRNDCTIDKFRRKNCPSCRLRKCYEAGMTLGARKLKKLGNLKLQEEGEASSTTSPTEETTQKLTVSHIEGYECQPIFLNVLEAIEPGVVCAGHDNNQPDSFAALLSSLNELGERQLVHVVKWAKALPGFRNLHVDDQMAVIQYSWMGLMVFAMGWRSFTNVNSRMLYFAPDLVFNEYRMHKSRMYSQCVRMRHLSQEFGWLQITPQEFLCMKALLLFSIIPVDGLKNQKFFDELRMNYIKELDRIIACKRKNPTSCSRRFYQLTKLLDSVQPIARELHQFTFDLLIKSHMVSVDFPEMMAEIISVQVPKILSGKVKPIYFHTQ

The experiment deals with androgen receptor (AR) (Homo sapiens, UniProt P10275). Briefly: ARE-CAT reporter assay in AR-transfected MDAH041 cells, with or without cyclin E. As to conditions: for AR function (CAT activity) when cyclin E was co-transfected: AR plus cyclin E expression vectors, 1000 molar excess of 5-OH—F, substantial CAT activity remained. A general note: In a reporter assay the amount or activity of a reporter protein is the signal.

Structures are written as SMILES.

Turning to `CC(C)(O)C(=O)Nc1ccc([N+](=O)[O-])c(C(F)(F)F)c1` [5-hydroxyflutamide], the “AR function (CAT activity) when cyclin E was co-transfected” value was “not sufficiently inhibited”. Further, the “DHT-induced activation of the ARE-CAT reporter construct” value (AR expression vector, no cyclin E, 10^−9 M dihydrotestosterone, 10^−5 M 5-hydroxy-flutamide, 18 h) is recorded as “inhibited totally”. Besides, where the note is “listed as 5-OH—F”, the “AR function (CAT activity) when cyclin E was co-transfected” value is reported as “not completely suppressed”.
